Reference: ChEMBL document CHEMBL1961873, “Compounds: GSK PKIS; Assays: Nanosyn kinase panel” (2012)
This is a selection; strong and weak results do not stand in their true shares.

Molecular target: T1, Mitogen-activated protein kinase 13 (Homo sapiens) (UniProt O15264)
T1 sequence (whole entry): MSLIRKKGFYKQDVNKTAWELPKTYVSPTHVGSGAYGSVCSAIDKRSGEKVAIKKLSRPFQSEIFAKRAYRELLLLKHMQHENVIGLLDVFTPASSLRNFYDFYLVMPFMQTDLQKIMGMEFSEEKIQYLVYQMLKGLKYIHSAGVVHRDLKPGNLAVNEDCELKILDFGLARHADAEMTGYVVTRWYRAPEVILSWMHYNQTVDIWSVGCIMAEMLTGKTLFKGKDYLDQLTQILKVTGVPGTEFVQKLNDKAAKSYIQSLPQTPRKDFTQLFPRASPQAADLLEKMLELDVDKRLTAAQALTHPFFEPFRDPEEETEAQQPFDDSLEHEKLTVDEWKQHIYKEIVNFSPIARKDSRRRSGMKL
Conditions: at 0.1 µM
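Further: reported value is the mean percent inhibition of p38delta.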

Q: `O=C1Nc2ccc(I)cc2C1=Cc1cc(Br)c(O)c(Br)c1` was tested. Which inhibition did it give?
A: 3.02%
